How the values were obtained:
[1] = test system: Aβ production in neuroblastoma SH-SY5Y cells (SH/APPwt); assay: β-amyloid (Aβ) production inhibitory effect in cell: 384-well; format: cell-based; conditions: Homo sapiens, read-out: IC50 value
Description: Neuroblastoma SH-SY5Y cells (SH/APPwt) with human wild-type β-APT excessively expressed therein were prepared at 4×10^5 cells/mL, and 50 μl portions thereof were inoculated into each well of a 384-well culture plate (Corning) added 0.5 μl of the test compound of the present invention (DMSO solution). The final DMSO concentration was 1%, and the amount of the cell culture was 50 μl. After the incubation was performed for 21 hours from the cell seeding, 5 μl of the culture supernatant was collected from each fraction. The amount of the Aβ in each fraction was measured.
The Aβ amount was measured as follows. 5 μl of a homogeneous time resolved fluoresrenee (HTRF) measurement reagent (Amyloid β1-40 peptide; CIS bio international) and 5 μl of the culture supernatant were put into a 384′well plate (a black plate: Corning) and mixed with each other, and then left standing overnight at 4° C. while the light was shielded. Then, the fluorescence intensity (620 nm and 665 nm) was measured with EnViston (Perkin Elmer life sciences).

[2] = test system: Aβ production in neuroblastoma SH-SY5Y cells (SH/APPwt); assay: β-amyloid (Aβ) production inhibitory effect in cell: 96-well; format: cell-based; conditions: Homo sapiens, read-out: IC50 value
Description: Neuroblastoma SH-SY5V cells (SH/APPwt) with human wild-type R-APP excessively expressed therein were prepared at 8×10^5 cells/mL, and 150 μl portions thereof were inoculated into each well of a 96-well culture plate (Falcon). The cells were cultured for 2 hours at […]. in a 5% gaseous carbon dioxide incubator. […] Namely, the final DMSO concentration was 1%, and the amount of the cell culture was 200 μl. After the incubation was performed for 24 hours from the addition of the test compound, 100 μl of the culture supernatant was collected from each fraction. The amount of the Aβ in each fraction was measured. The Aβ amount was measured as follows. 10 μl of a homogeneous time resolved fluorescence (HTRF) measurement reagent (Amyloid β1-40 peptide: CIS bio international) and 10 μof the culture supernatant were put into a 384-well half area microplate (black microplate, Costar) and mixed with each other, and then left standing overnight at 4° C. while the light was shielded.

| IC50 [1] [nM] | IC50 [2] [nM] | Compound |
| --- | --- | --- |
| 50 |  | C[C@@H]1SC(N)=N[C@](C)(c2cc(NC(=O)c3cnc(OCF)cn3)ccc2F)[C@@H]1F [Compound I-112] |
|  | 0.235 | C[C@H]1SC(N)=N[C@](C)(c2cc(NC(=O)c3cnc(OCF)cn3)ccc2F)[C@H]1F [Compound I-9] |

Source: patent US20170073337A1, “DIHYDROTHIAZINE AND DIHYDROOXAZINE DERIVATIVES HAVING BACE1 INHIBITORY ACTIVITY” (Shionogi & Co., Ltd., priority 2014, published 2017)
